# Results taken from patent US12129244B2, “Modulators of Mas-related G-protein receptor X2 and related products and methods” (Escient Pharmaceuticals, Inc., priority 2022, dated 2024).
# The chains behind the UniProt entries cited, without tags or fusion partners.
# UniProt Q96LB1, whole entry: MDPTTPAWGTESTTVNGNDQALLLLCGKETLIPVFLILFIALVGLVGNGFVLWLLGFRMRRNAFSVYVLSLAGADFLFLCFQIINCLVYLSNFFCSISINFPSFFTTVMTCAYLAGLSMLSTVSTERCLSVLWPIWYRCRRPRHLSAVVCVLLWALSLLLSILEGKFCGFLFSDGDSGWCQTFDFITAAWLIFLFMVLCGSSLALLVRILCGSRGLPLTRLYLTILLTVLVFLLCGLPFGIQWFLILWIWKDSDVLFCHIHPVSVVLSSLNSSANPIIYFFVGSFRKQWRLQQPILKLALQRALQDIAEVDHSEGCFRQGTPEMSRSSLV
# Molecular target: human MRGPRX2 (Homo sapiens, UniProt Q96LB1)
# Experiment: MRGPRX2 activity: IP-One HTRF antagonist assay in CHO cells versus Cortistatin-14
# Settings: read-out: MRGPRX2 Antagonist Activity; CHO cells stably expressing human MRGPRX2; versus 0.3 uM Cortistatin-14 agonist; IP-1 HTRF
# Experimental: CHO cells stably transfected to express human MRGPRX2 were maintained in an incubator at 37° C. with 5% CO2 and grown in F12 (HAM) media with 10% fetal bovine serum (FBS), 1% Glutamax, 1% penicillin/streptomycin, 800 μg/mL Geneticin (G418), and 300 μg/mL Hygromycin B.
# Cells were plated in a 384-well assay plate at 20,000 cells per well in 12 μL of Opti-MEM and kept in an incubator overnight. On the day of the assay, compounds solubilized at 10 mM in DMSO were added as a 10-point curve (30 uM final top concentration with 1:3 serial dilutions) using a Tecan D300E digital dispenser. Agonists were diluted in assay buffer (final concentrations of 5.7 mM Tris-HCl, 43 mM NaCl, 50 mM LiCl, pH=8) and 2 μL of the agonist Cortistatin-14 (CPC Scientific, catalog CORT-002) are added to each well. Final concentrations of agonists were 0.3 μM Cortistatin. Final concentrations of DMSO were kept consistent across the plate. Plates were incubated in the dark for 1 h at 37° C. and then for 1 h at room temperature. IP-1 standards and HTRF detection reagents were added according to the IP-One-Gq Kit purchased from Cisbio (part number 62IPAPEJ) and incubated in the dark for 1 h at room temperature. The plate was read on a Molecular Devices SpectraMax iD5 plate reader. The HTRF ratio was calculated from the raw data and graphed using GraphPad Prism to calculate an IC50 value for each compound. […]
smiles,measurement,value
N#CCCn1ncc(C(=O)N[C@@H]2CCC[C@H](Nc3cc(C(F)(F)F)nc4ccc(Cl)cc34)C2)c1Cl,IC50,< 100 nM
